Experimental findings from article PMC9503459, “Antifungal Activity, Structural Stability, and Immunomodulatory Effects on Human Immune Cells of Defensin from the Lentil Lens culinaris” (Membranes, 2022) are described below.

For this data set, the system named is human red blood cells (hRBC). Kind of data set: Hemolytic assay. In kind it is cell-based. The note with it: 4% hRBC in PBS pH 7.2, 1.5 h, 37 °C, A405. Here is the method:
Hemolytic activity of Lc-def was studied using 96-well microplates. Fresh human red blood cells (hRBC) were washed three times with ice-cold PBS, pH 7.2. Serial two-fold dilutions of Lc-def and membrane-active peptide melittin from the venom of honeybees as positive control (final concentrations from 0.1 to 100 μM) were then added to hRBC in PBS (final concentration of 4% (v/v)). The suspension was incubated for 1.5 h at 37 °C. After, intact hRBC sedimentation aliquots of the supernatants containing released hemoglobin were transferred to 96-well microplates, and the absorbance at 405 nm was measured. hRBC in PBS or 0.1% Triton X-100 were employed as negative (control0) and positive (control100) controls, respectively. The percentage of hemolysis was calculated as: hemolysis(%) = ((Asample − Acontrol0)/(Acontrol100 − Acontrol0)) × 100%. Experiment was carried out twice in triplicate using the same blood.

Take `CC[C@H](C)[C@H](NC(=O)CN)C(=O)NCC(=O)N[C@@H](C)C(=O)N[C@H](C(=O)N[C@@H](CC(C)C)C(=O)N[C@@H](CCCCN)C(=O)N[C@H](C(=O)N[C@@H](CC(C)C)C(=O)N[C@H](C(=O)N[C@H](C(=O)NCC(=O)N[C@@H](CC(C)C)C(=O)N1CCC[C@H]1C(=O)N[C@@H](C)C(=O)N[C@@H](CC(C)C)C(=O)N[C@H](C(=O)N[C@@H](CO)C(=O)N[C@@H](Cc1c[nH]c2ccccc12)C(=O)N[C@H](C(=O)N[C@@H](CCCCN)C(=O)N[C@@H](CCCNC(=N)N)C(=O)N[C@@H](CCCCN)C(=O)N[C@@H](CCCNC(=N)N)C(=O)N[C@@H](CCC(N)=O)C(=O)N[C@@H](CCC(N)=O)C(N)=O)[C@@H](C)CC)[C@@H](C)CC)[C@@H](C)O)[C@@H](C)O)C(C)C)C(C)C` [melittin, reference compound]: the “concentration causing 50% hemolysis” value was found to be 1600 nM.
